This is an account of results in patent publication US7211424B1, “Mammalian Subtilisin/kexin isozyme SKI-1: a proprotein convertase with a unique cleavage specificity” (Institut de Recherches Cliniques de Montreal, priority 1999, dated 2007).

For assay [1], the target named is T1, BTMD-SKI-1 (Homo sapiens, UniProt Q14703).
T1 sequence (Q14703 187-997 limits assumed): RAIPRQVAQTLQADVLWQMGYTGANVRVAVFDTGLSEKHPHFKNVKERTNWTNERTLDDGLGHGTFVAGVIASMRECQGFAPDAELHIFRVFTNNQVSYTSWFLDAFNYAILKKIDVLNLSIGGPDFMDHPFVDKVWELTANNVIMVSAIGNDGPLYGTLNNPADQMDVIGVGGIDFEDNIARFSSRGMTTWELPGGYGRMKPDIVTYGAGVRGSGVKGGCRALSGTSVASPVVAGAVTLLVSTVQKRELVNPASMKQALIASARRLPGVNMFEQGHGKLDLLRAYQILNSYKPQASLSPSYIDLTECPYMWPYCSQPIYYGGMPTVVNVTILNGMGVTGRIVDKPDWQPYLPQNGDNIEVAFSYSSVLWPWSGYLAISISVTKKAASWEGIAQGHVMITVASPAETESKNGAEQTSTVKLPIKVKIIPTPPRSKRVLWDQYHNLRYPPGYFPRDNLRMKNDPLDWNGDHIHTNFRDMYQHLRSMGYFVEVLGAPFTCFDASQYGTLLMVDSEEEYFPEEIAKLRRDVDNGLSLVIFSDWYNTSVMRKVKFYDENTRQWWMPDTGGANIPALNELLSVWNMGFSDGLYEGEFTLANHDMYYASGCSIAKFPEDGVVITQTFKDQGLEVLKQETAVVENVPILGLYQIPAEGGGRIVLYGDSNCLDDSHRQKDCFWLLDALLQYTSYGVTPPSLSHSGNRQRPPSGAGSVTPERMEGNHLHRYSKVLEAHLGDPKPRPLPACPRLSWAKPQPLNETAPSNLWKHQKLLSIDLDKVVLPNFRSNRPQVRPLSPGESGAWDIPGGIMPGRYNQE
T1 sequence (Q14703 17-137 partner limits assumed): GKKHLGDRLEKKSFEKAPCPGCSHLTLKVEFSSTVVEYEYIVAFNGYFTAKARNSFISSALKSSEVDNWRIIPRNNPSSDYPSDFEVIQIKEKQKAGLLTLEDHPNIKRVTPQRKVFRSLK
In kind it is biochemical.

In assay [2] the target is T2, BTMD-SKI-1 (human, UniProt Q14703 187-997).
T2 construct: The construct encodes aa 1-997 plus hexa-His; It was secreted from VV-infected BSC40 or LoVo cells and used as concentrated medium or after metal chelation purification; The secreted enzyme stays associated with the ~14 kDa prosegment fragment; also called bSKI-1; BTMD-hSKI-1
T2 sequence: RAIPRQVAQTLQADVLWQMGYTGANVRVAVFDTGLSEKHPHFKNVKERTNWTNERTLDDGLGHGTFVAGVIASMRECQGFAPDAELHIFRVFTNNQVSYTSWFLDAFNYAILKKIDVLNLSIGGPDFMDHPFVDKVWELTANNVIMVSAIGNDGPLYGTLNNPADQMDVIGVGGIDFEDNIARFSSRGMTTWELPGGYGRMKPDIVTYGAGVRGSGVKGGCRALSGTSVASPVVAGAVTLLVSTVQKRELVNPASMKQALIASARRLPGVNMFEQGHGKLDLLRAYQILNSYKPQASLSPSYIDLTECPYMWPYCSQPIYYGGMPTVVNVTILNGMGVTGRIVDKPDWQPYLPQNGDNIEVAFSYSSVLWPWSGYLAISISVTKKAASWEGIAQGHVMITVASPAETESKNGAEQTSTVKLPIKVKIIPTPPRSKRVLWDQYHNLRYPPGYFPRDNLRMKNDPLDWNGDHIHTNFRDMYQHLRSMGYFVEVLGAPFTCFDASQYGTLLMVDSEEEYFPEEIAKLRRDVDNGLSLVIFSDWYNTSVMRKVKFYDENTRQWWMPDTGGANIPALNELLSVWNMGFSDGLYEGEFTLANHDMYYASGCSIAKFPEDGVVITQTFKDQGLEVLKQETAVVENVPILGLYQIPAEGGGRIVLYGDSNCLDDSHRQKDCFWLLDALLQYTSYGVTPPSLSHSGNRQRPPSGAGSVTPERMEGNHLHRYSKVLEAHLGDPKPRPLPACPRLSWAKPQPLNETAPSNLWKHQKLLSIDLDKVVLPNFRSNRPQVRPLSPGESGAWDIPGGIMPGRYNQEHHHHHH
Put plainly: Ki(app) from Dixon plots; inhibition of peptide IV hydrolysis by BTMD-SKI-1 medium (RP-HPLC), prosegment preincubated with the enzyme for 30 min.

For the molecule `O=S(=O)(F)Cc1ccccc1` [PMSF, phenylmethylsulfonyl fluoride], the “Hydrolysis of SREBP-2 peptide (% of control)” value on BTMD-SKI-1 [1] is given as 85 % of control.

B1: PS1 (SKI-1 prosegment construct extending to Leu169, hexa-His tag) (other)
chain: KKHLGDRLEKKSFEKAPCPGCSHLTLKVEFSSTVVEYEYIVAFNGYFTAKARNSFISSALKSSEVDNWRIIPRNNPSSDYPSDFEVIQIKEKQKAGLLTLEDHPNIKRVTPQRKVFRSLKYAESDPTVPCNETRWSQKWQSSRPLRRASLSLHHHHHH
notes: Bacterial recombinant (pET24b, BamHI/XhoI, E. coli BL21); The start at aa 18 follows the sense primer and claim 5; Any vector-derived residues are not described; also called PSI
The molecule B1 yielded a Ki with BTMD-SKI-1 [2] of 182 nM.
